The assay has as its target Induced myeloid leukemia cell differentiation protein Mcl-1 (Homo sapiens, UniProt Q07820).

Protein sequences, listed by entry. Tags and fused reporters are not part of them.
UniProt Q07820, whole entry: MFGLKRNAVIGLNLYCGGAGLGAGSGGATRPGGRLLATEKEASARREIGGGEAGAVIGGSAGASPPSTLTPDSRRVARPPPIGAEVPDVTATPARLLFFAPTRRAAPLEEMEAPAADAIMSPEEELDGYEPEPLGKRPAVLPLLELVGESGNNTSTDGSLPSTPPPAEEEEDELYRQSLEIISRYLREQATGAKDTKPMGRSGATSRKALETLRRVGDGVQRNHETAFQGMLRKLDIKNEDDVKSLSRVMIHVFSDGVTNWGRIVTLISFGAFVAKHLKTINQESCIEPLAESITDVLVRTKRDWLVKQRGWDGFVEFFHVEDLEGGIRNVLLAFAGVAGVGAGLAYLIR

Consider `COc1c(SCC(=O)O)cc(NS(=O)(=O)c2ccc(-c3ccccc3)cc2)c2ccccc12`, for which the affinity corresponds to a Ki of 4.89 µM.

The term Ki denotes the dissociation constant of the complex between target and ligand, obtained from inhibition or displacement.
